{
  "source": "patent US20040023884A1",
  "about": "“Biologically active peptides from functional domains of bactericidal/permeability-increasing protein and uses thereof” (priority 1993, published 2004)",
  "key": {"[1]": {"system": "rough mutant E. coli J5 bacteria", "assay": "Radial diffusion bactericidal assay, E. coli J5", "format": "cell-based", "conditions": "PROBIT analysis", "method": "BPI proteolytic fragments produced according to Example 1 were screened for bactericidal effects using rough mutant E. coli J5 bacteria in a radial diffusion assay. Specifically, an overnight culture of E. coli J5 was diluted 1:50 into fresh tryptic soy broth and incubated for 3 hours at 37° C. to attain log phase growth of the culture. Bacteria were then pelleted at 3,000 rpm for 5 minutes in a Sorvall RT6000B centrifuge (Sorvall Instruments, Newton, Conn.). 5 mL of 10 mM sodium phosphate buffer (pH 7.4) was added and the preparation was re-pelleted. […] The bacteria were diluted to 4×10^6 CFU/mL in 10 mL of molten underlayer agarose (at approximately 45° C.) and inverted repeatedly to mix in 15 mL polypropylene tubes conventionally used for this purpose.\nThe entire contents of such tubes were then poured into a level square petri dish and distributed evenly by rocking the dish side-to-side. […] A series of wells were then punched into the hardened agarose using a sterile 3 mm punch attached to a vacuum apparatus. The punch was sterilized with 100% alcohol and allowed to air dry prior to use to avoid contaminating the bacterial culture.\n5 or 10 μL of each of the BPI fragments were carefully pipetted into each well. As a negative control, dilution buffer (pH 8.3) was added to a separate well, and rBPI23 at concentrations of 5 μg/mL and 1 μg/mL were also added as positive controls. Each plate was incubated at 37° C. for 3 hours, and then 10 mL of molten overlayer agarose (at approximately 45° C.) was added into the level petri dish, allowed to harden and incubated overnight at 37° C. […] The bacterial zones were measured with a micrometer."}, "[2]": {"system": "LPS-stimulated NO production by RAW 264.7 cells", "assay": "LPS-stimulated NO production by RAW 264.7 cells", "format": "cell-based, mouse", "method": "An additional LPS neutralization screening assay for BPI functional domain peptides was developed using an assay for NO production in mouse cells treated with LPS (see Lorsbach et al., 1993, J. Biol. Chem. 268: 1908-1913). In this assay, mouse RAW 264.7 cells (ATCC Accession No. TIB71) were treated with bacterial LPS. The cells were incubated in 96-well plates and stimulated for 2 hours with E. coli 0113 LPS or zymosan, in the presence or absence of _-interferon, rLBP, fetal bovine serum (FBS) or normal human serum (NHS), or rBPI21Δcys. After this incubation, the cells were washed with fresh media and incubated overnight in media containing 10% FCS. The NO released from the cells accumulated in the media and spontaneously converted to nitrite. This nitrite was assayed in situ by the Griess reaction, as follows. The nitrite was reacted with the primary amine of an added sulfanilamide and formed a diazonium salt. This salt was then reacted with added naphthylethylenediamine to form a red azo-dyc. The Griess reaction was performed at room temperature in about 10 minutes. The amount of produced NO was estimated from a standard curve of Griess reaction products determined spectrophotometrically as Absorbance at a wavelength of 550 nm."}},
  "data": [
    {"compound": "CC[C@H](C)[C@H](NC(=O)[C@H](CCCCN)NC(=O)[C@H](CCCCN)NC(=O)[C@H](Cc1c[nH]cn1)NC(=O)[C@H](Cc1ccccc1)NC(=O)[C@H](CC(C)C)NC(=O)[C@H](CCC(N)=O)NC(=O)[C@@H](NC(=O)[C@H](CC(C)C)NC(=O)[C@H](Cc1c[nH]c2ccccc12)NC(=O)CNC(=O)[C@@H](NC(=O)[C@H](CCCCN)NC(=O)[C@H](CO)NC(=O)[C@H](CCCCN)NC(=O)[C@H](CO)NC(=O)[C@@H](NC(=O)[C@H](Cc1c[nH]cn1)NC(=O)[C@@H](NC(=O)[C@H](Cc1c[nH]cn1)NC(=O)[C@@H](N)C(C)C)C(C)C)[C@@H](C)CC)C(C)C)[C@@H](C)CC)C(=O)N[C@@H](CCC(=O)O)C(=O)O", "note": "[BPI.5]", "values": [
      {"measurement": "pmol added to well to achieve a 30 mm^2 bactericidal zone, E. coli J5", "setting": "[1]", "result": 398.10, "unit": "pmol"},
      {"measurement": "inhibition of LPS-stimulated NO production (in words)", "setting": "[2]", "result": "detectable levels of LPS neutralization"}
    ]}
  ]
}
